Assay results from PMC6332427, “Drug Discovery of Host CLK1 Inhibitors for Influenza Treatment” (Molecules, 2015).

How the values were obtained:
[1] = tested on: influenza virus A/PR/8/34 (H1N1); assay: in vitro
MDCK cells = assay: Cytotoxicity assay in MDCK cells (MTT, 72 h); settings: more than 90% cells viable
[2] = Pre-Treatment Assay SI (selective index, CC50/EC50)
[3] = Simultaneous Treatment Assay SI (selective index, CC50/EC50)

| Compound | selectivity ratio [1, 2] | selectivity ratio [1, 3] | selectivity ratio ([1]; Post-Treatment Assay SI (selective index, CC50/EC50)) | CC0 (maximal non-cytotoxic concentration) (MDCK cells) [µg/mL] |
| --- | --- | --- | --- | --- |
| O=C(O[C@@H]1Cc2c(O)cc(O)cc2O[C@@H]1c1cc(O)c(O)c(O)c1)c1cc(O)c(O)c(O)c1 [J14080, Epigallocatechin gallate] | 6.98 | 4.78 |  |  |
| NC(=O)c1ncn([C@@H]2O[C@H](CO)[C@@H](O)[C@H]2O)n1 [Ribavirin, reference compound] | > 45.9 | > 19.4 | > 14.5 | 100 |
